Like-named read-outs stand apart in the source and are kept apart here. Where a SMILES comes first, the peptide text is derived from it. The star is where a group is joined. Cbz = O=C(OCc1ccccc1)*
Tested on: C533S-ODD-luc

Compound | activation of C533S-ODD-luc compared with wild type ODD-luc (4T1 cells, CoCl2 or proteasome inhibitor MG132, as in FIG. 1B) | activation of C533S-ODD-luc compared with wild type ODD-luc
CC(C)C[C@@H](C=O)NC(=O)[C@H](CC(C)C)NC(=O)[C@H](CC(C)C)NC(=O)OCc1ccccc1 [MG132] (Cbz-Leu-Leu-Leu-aldehyde) | p>0.05 between wild type and mutant ODD-luc expression levels | 
[Cl-].[Cl-].[Co+2] [CoCl2] |  | significant inductions, similar to wild-type

Source: patent publication US8968702B2, “Inhibition of HIF-1 activation for anti-tumor and anti-inflammatory responses” (Duke University, priority 2006, dated 2015)
